## Permeability data for macrocyclic peptides

Collected by the curators of CycPeptMPDB (Li et al. 2023) from Kelly et al. 2021, doi:10.1021/jacs.0c06115.

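Lipid, pH, incubation time, direction and concentration are not recorded in the data file. The list need not hold all peptides of the study. Peptides that the database sets to -10, its floor, are left out.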

PAMPA is the parallel artificial membrane permeability assay, which has no cells and reads passive diffusion. Permeability is in 10^-6 cm/s, converted from the database's log10 values; higher is more permeable.

SMILES,PAMPA (10^-6 cm/s)
CC(=O)N1CCC[C@@H]1C(=O)N(C)[C@@H](CC(C)C)C(=O)N[C@@H]1C(=O)N(C)[C@@H](CC(C)C)C(=O)N[C@@H](CC(C)C)C(=O)N(C)[C@@H](CC(C)C)C(=O)N(C)[C@@H](C)C(=O)N[C@@H](CC(C)C)C(=O)N2CCC[C@H]2C(=O)O[C@@H]1C,2.3
CC(=O)N1CCC[C@H]1C(=O)N(C)[C@@H](CC(C)C)C(=O)N[C@@H]1C(=O)N[C@H](CC(C)C)C(=O)N[C@@H](CC(C)C)C(=O)N[C@@H](CC(C)C)C(=O)N[C@@H](C)C(=O)N[C@H](CC(C)C)C(=O)N2CCC[C@H]2C(=O)O[C@@H]1C,0.089
CC(=O)N1CCC[C@H]1C(=O)N(C)[C@H](CC(C)C)C(=O)N[C@@H]1C(=O)N[C@H](CC(C)C)C(=O)N(C)[C@H](CC(C)C)C(=O)N(C)[C@@H](CC(C)C)C(=O)N[C@@H](C)C(=O)N[C@@H](CC(C)C)C(=O)N2CCC[C@@H]2C(=O)O[C@@H]1C,1.3
CC(=O)N1CCC[C@H]1C(=O)N(C)[C@H](CC(C)C)C(=O)N[C@@H]1C(=O)N(C)[C@@H](CC(C)C)C(=O)N(C)[C@H](CC(C)C)C(=O)N(C)[C@@H](CC(C)C)C(=O)N(C)[C@H](C)C(=O)N[C@H](CC(C)C)C(=O)N2CCC[C@@H]2C(=O)O[C@@H]1C,7.1
CC(=O)N1CCC[C@@H]1C(=O)N(C)[C@@H](CC(C)C)C(=O)N[C@@H]1C(=O)N(C)[C@H](CC(C)C)C(=O)N(C)[C@H](CC(C)C)C(=O)N[C@H](CC(C)C)C(=O)N[C@@H](C)C(=O)N[C@H](CC(C)C)C(=O)N2CCC[C@@H]2C(=O)O[C@@H]1C,2
CC(=O)N1CCC[C@H]1C(=O)N(C)[C@@H](CC(C)C)C(=O)N[C@@H]1C(=O)N[C@@H](CC(C)C)C(=O)N[C@H](CC(C)C)C(=O)N[C@H](CC(C)C)C(=O)N[C@H](C)C(=O)N[C@@H](CC(C)C)C(=O)N2CCC[C@H]2C(=O)O[C@@H]1C,0.11
CC(=O)N1CCC[C@H]1C(=O)N(C)[C@@H](CC(C)C)C(=O)N[C@@H]1C(=O)N(C)[C@@H](CC(C)C)C(=O)N(C)[C@H](CC(C)C)C(=O)N(C)[C@H](CC(C)C)C(=O)N(C)[C@@H](C)C(=O)N[C@@H](CC(C)C)C(=O)N2CCC[C@@H]2C(=O)O[C@@H]1C,1.2
CC(=O)N[C@@H]1C(=O)N2CCC[C@H]2C(=O)N(C)[C@H](CC(C)C)C(=O)N[C@@H](CC(C)C)C(=O)N[C@@H](CC(C)C)C(=O)N[C@@H](CC(C)C)C(=O)N[C@H](C)C(=O)N[C@@H](CC(C)C)C(=O)N2CCC[C@@H]2C(=O)O[C@@H]1C,0.069
CC(=O)N1CCC[C@@H]1C(=O)N(C)[C@H](CC(C)C)C(=O)N[C@@H]1C(=O)N(C)[C@H](CC(C)C)C(=O)N[C@H](CC(C)C)C(=O)N(C)[C@@H](CC(C)C)C(=O)N(C)[C@@H](C)C(=O)N[C@@H](CC(C)C)C(=O)N2CCC[C@H]2C(=O)O[C@@H]1C,2.6
CC(=O)N1CCC[C@H]1C(=O)N(C)[C@H](CC(C)C)C(=O)N[C@@H]1C(=O)N(C)[C@@H](CC(C)C)C(=O)N(C)[C@H](CC(C)C)C(=O)N(C)[C@@H](CC(C)C)C(=O)N(C)[C@@H](C)C(=O)N[C@@H](CC(C)C)C(=O)N2CCC[C@H]2C(=O)O[C@@H]1C,4.2
CC(=O)N1CCC[C@H]1C(=O)N(C)[C@@H](CC(C)C)C(=O)N[C@@H]1C(=O)N[C@H](CC(C)C)C(=O)N(C)[C@@H](CC(C)C)C(=O)N(C)[C@@H](CC(C)C)C(=O)N[C@@H](C)C(=O)N[C@@H](CC(C)C)C(=O)N2CCC[C@H]2C(=O)O[C@@H]1C,2.1
CC(=O)N1CCC[C@H]1C(=O)N(C)[C@H](CC(C)C)C(=O)N[C@@H]1C(=O)N(C)[C@@H](CC(C)C)C(=O)N[C@@H](CC(C)C)C(=O)N(C)[C@H](CC(C)C)C(=O)N(C)[C@H](C)C(=O)N[C@@H](CC(C)C)C(=O)N2CCC[C@H]2C(=O)O[C@@H]1C,7.4

The first 2 entries again:

SMILES	PAMPA (10^-6 cm/s)
CC(=O)N1CCC[C@@H]1C(=O)N(C)[C@@H](CC(C)C)C(=O)N[C@@H]1C(=O)N(C)[C@@H](CC(C)C)C(=O)N[C@@H](CC(C)C)C(=O)N(C)[C@@H](CC(C)C)C(=O)N(C)[C@@H](C)C(=O)N[C@@H](CC(C)C)C(=O)N2CCC[C@H]2C(=O)O[C@@H]1C	2.3
CC(=O)N1CCC[C@H]1C(=O)N(C)[C@@H](CC(C)C)C(=O)N[C@@H]1C(=O)N[C@H](CC(C)C)C(=O)N[C@@H](CC(C)C)C(=O)N[C@@H](CC(C)C)C(=O)N[C@@H](C)C(=O)N[C@H](CC(C)C)C(=O)N2CCC[C@H]2C(=O)O[C@@H]1C	0.089